ChEMBL document CHEMBL1154690, “Identification of novel, selective, and stable inhibitors of class II histone deacetylases. Validation studies of the inhibition of the enzymatic activity of HDAC4 by small molecules as a novel approach for cancer therapy” (J Med Chem, 2009)

Test: Selectivity ratio of IC50 for Escherichia coli HDAC4 WT (653-1084) to IC50 for HDAC1

Compound: O=C(O)c1cccc(-c2ccc(C(=O)C(F)(F)F)s2)c1
- Ratio IC50: 40
